The values below come from patent US11396517B1, “Exo-aza spiro inhibitors of menin-MLL interaction” (Janssen Pharmaceutica NV, priority 2017, dated 2022).

Sequences of proteins named here, by UniProt entry; tags and fusion partners are left off. A line that says so, or that is headed by a name, gives the form on record, which may keep a tag or linker. Residues count along the entry.
UniProt O00255, 1-610 with tags or gaps T541A limits assumed: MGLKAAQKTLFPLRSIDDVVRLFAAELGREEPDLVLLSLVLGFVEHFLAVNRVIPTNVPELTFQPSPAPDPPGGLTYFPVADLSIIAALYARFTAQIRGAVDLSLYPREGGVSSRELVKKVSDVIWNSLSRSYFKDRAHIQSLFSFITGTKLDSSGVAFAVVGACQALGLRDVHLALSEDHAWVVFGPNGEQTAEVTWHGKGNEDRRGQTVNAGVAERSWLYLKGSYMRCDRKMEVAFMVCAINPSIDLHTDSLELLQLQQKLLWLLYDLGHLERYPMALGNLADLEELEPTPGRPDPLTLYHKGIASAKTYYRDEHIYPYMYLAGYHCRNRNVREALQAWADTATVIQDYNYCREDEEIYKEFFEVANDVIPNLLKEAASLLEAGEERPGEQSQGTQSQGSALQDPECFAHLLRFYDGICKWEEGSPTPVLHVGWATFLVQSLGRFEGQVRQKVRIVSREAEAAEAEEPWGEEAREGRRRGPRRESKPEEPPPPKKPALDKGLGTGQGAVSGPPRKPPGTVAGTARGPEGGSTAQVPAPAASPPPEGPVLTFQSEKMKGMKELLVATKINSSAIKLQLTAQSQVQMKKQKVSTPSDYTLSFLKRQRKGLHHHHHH

Experiment [1] deals with menin (Homo sapiens, UniProt O00255, T541A). As to the kind of experiment: Menin/MLL homogenous time-resolved fluorescence (HTRF) assay. The conditions noted are these: read-out: (2) location 2 Menin HTRF assay (IC50 (nM)). For orientation: TR-FRET usually uses a lanthanide donor and a delayed reading to cut background.
The test system of experiment [2] is MOLM14. In words: Proliferation assay B (spheroid assay) MOLM14. The conditions noted are these: read-out: (3b) Spheroid assay MOLM14 (IC50(μM)) Assay B; MOLM14 cells, confluence at day 8, absolute IC50.
Experiment [3] relates to MV-4-11. In words: Proliferation assay A (spheroid assay) MV-4-11. To be noted: read-out: (3a) Spheroid assay MV-4-11 (IC50(μM)) Assay A; MV-4-11 cells, 8 d, AUC of confluence against time, absolute IC50.
For experiment [4], the system named is MV-4-11. In words: Proliferation assay B (spheroid assay) MV-4-11. To be noted: read-out: (3b) Spheroid assay MV-4--11 (IC50(μM)) Assay B; MV-4-11 cells, confluence at day 8, absolute IC50.

`Cc1nc(N2CCC3(CC(Nc4ccccc4)C3)C2)c2cc(CC(F)(F)F)sc2n1` (single isomer, unassigned): the IC50 (commonly the concentration needed to halve the response being measured) in experiment [1] is 246 nM.
For the molecule `CNC(=O)c1ccc(NC2CC3(CCN(c4ncnc5sc(CC(F)(F)F)cc45)C3)C2)c(C)c1` (single isomer, unassigned), the IC50 in experiment [1] was determined as 4.7 nM; in experiment [2], 1.04 µM.
Regarding `N#CCc1ccc(NC2CC3(CCN(c4ncnc5sc(CC(F)(F)F)cc45)C3)C2)cc1F` (single isomer, unassigned) [Compound 200], the IC50 is 3.6 nM in experiment [1] and 0.92 µM in experiment [3].
Consider `N#CCc1cccc(NC2CC3(CCN(c4ncnc5sc(CC(F)(F)F)cc45)C3)C2)c1` (single isomer, unassigned), for which the 50% inhibitory concentration (IC50) is 58.3 nM in experiment [1] and 2.3 µM in experiment [3].
With `FC(F)(F)Cc1cc2c(N3CCC4(CC(Nc5ccncc5)C4)C3)ncnc2s1` (single isomer, unassigned), the IC50 in experiment [1] is 97 nM; in experiment [2] it was > 3.75 µM; in experiment [4], 2.6 µM.
Take `CNC(=O)c1ccc(NC2CC3(CCN(c4ncnc5sc(CC(F)(F)F)cc45)C3)C2)cc1C` (single isomer, unassigned): the half-inhibitory concentration (IC50) in experiment [1] came out at 11.8 nM; in experiment [2], 2.9 µM.
For the molecule `CC(C)(C#N)c1ccc(NC2CC3(CCN(c4ncnc5sc(CC(F)(F)F)cc45)C3)C2)cc1` (single isomer, unassigned), the 50% inhibitory concentration (IC50) in experiment [1] is 12.4 nM; in experiment [3] it was 0.95 µM.
With `N#CCc1ccc(NC2CC3(CCN(c4ncnc5sc(CC(F)(F)F)cc45)C3)C2)cc1F` (single isomer, unassigned) [Compound 199], the IC50 in experiment [1] was 58.3 nM; in experiment [3], 3.16 µM.
On to `CS(=O)(=O)N[C@H]1CC[C@@H](NC2CC3(CCN(c4ncnc5sc(CC(F)(F)F)cc45)C3)C2)CC1` (single isomer, unassigned), for which, in experiment [2], the IC50 was 2.94 µM.
